Reference: patent US9234178B2, “Differentiation of human pluripotent stem cells” (Janssen Biotech, Inc., priority 2008, dated 2016)
Where two headings read alike, the source gives them in different places.

System: cells expressing markers characteristic of the pancreatic endocrine lineage
Test: Screening of BIOMOL Kinase Inhibitor Library, real-time PCR (Example 7)
Conditions: Homo sapiens, 144 h

N#CC(=C(/N)Sc1ccccc1N)/C(C#N)=C(\N)Sc1ccccc1N [Well B2, U-0126]
fold induction at 4 µM (read-out: Ratio vs. Control: Insulin to Glucagon): 2.4
fold induction at 4 µM (read-out: Ratio vs. Control: MAFA to Arx4): 1.3
